This experiment concerns the target Mu-type opioid receptor (Rattus norvegicus, UniProt P33535). As to the kind of experiment: Binding affinity towards Opioid receptor mu 1. In outline: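 Rat brain minus cerebellum, homogenised in 0.32 M sucrose and spun. The membrane pellet was preincubated 1 h at room temperature in Tris pH 7.5/NaCl to strip endogenous opioids. Nonspecific binding with 10 μM DAMGO. Filtration, scintillation counting.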

Sequences of proteins named here, by UniProt entry; tags and fusion partners are left off.
UniProt P33535, whole entry: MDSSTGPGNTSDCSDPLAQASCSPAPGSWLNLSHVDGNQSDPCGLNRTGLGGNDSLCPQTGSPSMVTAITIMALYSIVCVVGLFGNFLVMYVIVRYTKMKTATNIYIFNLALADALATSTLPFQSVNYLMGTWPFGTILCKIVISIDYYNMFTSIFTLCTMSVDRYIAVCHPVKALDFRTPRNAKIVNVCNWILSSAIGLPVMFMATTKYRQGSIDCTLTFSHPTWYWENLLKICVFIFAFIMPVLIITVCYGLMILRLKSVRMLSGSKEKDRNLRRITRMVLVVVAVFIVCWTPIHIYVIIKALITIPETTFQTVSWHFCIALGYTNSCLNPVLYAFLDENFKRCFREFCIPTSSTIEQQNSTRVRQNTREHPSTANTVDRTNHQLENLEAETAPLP

This is an account of results in ChEMBL document CHEMBL1133148 (Bioorg Med Chem Lett, 2000).

Each structure is given as a SMILES string.

As usually defined, the Ki is the equilibrium dissociation constant of an inhibitor or competing ligand from its target. A low value points to higher affinity. Take `C[C@@H](NC(=O)[C@@H](N)Cc1ccc(O)cc1)C(=O)NCC(=O)N(C)[C@@H](Cc1ccccc1)C(=O)NCCO` [DAMGO]: the inhibition constant (Ki) turned out to be 1.64 nM.
